Data: patent US6403631B1, “Method and compositions for enhancing pregnancy success in an animal” (Equitech Laboratories, Inc., priority 1995, dated 2002)

Tested on: corpora lutea segments from cycling mares
Test: In vitro progesterone production by corpus luteum segments (Example 8)
Format: cell-based
Details: 100 ng hCG vs absence of hCG; p=0.033
Method: Corpus luteum tissue was collected surgically and was dissected into segments approximately 2×2 mm^2. Segments were incubated in the following manner: [table] At completion of culture, segments were frozen until assayed for DNA content. All media progesterone concentrations were subsequently adjusted for DNA content of the appropriate segment.

In the case of “hCG: human chorionic gonadotropin (hCG), supplement of luteal tissue culture”, the “media progesterone concentrations, adjusted for DNA content” value is reported as “significantly higher”.
